# Results taken from paper PMC8398766, “Do Small Molecules Activate the TrkB Receptor in the Same Manner as BDNF? Limitations of Published TrkB Low Molecular Agonists and Screening for Novel TrkB Orthosteric Agonists” (Pharmaceuticals, 2021).
# Legend:
# [1] = test system: TrkB and downstream proteins (PLCγ1, Akt1, ERK1/2); test: Downstream signaling immunoblot, SN56 T48 cell line; conditions: for Activation of downstream proteins (Akt1 and ERK1/2) after inhibition of TrkB kinase by K252a: K252a 1 μM 15 min before 100 μM compound; for Phosphorylation of TrkB and downstream proteins (PLCγ1, Akt1, ERK1/2): compounds up to 100 μM, BDNF up to 100 ng/mL, 15 min
# Description: The SN56 T48 cell line with stable overexpression of the TrkB receptor was purchased from Emory University (Atlanta, GA, USA) and cultivated according to the protocol described in Jang et al., 2010 [12]. The cell lines were cultivated with the following reagents: DMEM High Glucose, fetal bovine serum (FBS), Penicillin-Streptomycin Solution 100×, and Trypsin-EDTA 1×; all were purchased from Biowest, and G418 was from ThermoFisher Scientific. For the ELFI experiments, cells were seeded (8000/well) on a PDL-treated 96-well plate (BioCoat™, Corning Inc., Corning, NY, USA) and 6-well plate (400,000/well) for lysate collection and immunoblot analysis.
# On the day of the experiments, cells were starved for 5 h with appropriate culture medium. SN56 T48 cells were treated with reference compounds at 100 μM or 1, 10, or 100 μM concentrations of the selected molecules, and 1, 10, and 100 ng/mL of BDNF. Differentiated SH-SY5Y cells were treated with 1, 10, or 100 μM concentrations of the tested molecules and 1, 10, and 100 ng/mL of BDNF for 15 min. For compound specificity, the evaluation cell lines were first pretreated with 1 μM K252a (MilliporeSigma, Saint Louis, MO, USA) for 15 min and then cotreated with 100 μM concentrations of the tested molecules.
# Compound treatment was stopped by lysing cells with N-PER™ Neuronal Protein Extraction Reagent (Thermo Fisher Scientific) containing 1 × PhosSTOP™ (Roche, Basel, Switzerland), 1 × Halt Protease Inhibitor Single-Use Cocktail (ThermoFisher Scientific) and 5 mM EDTA. The lysates were collected by scraping, and centrifuged (8000× g; 10 min at 4 °C), and the protein concentration was determined using a BCA Pierce kit (ThermoFisher Scientific). The lysates were stored at −80 °C until further processing. Samples containing 20 μg of protein were further denatured in 4 × Laemli Buffer with 5% β-mercaptoethanol at 95 °C for 5 min and electrophoresed on gels prepared using a 10% TGX Stain-Free™ FastCast™ Acrylamide Kit (Bio-Rad). Afterwards, the proteins were transferred (wet transfer, 100 V, 60 min) onto nitrocellulose membranes (GE Healthcare, Chicago, IL, USA), which were blocked in 5% BSA in TBS-T (TBS + 0.1% Tween20) for 2 h. […] After repeated washes (TBS-T), the proteins were detected with HRP-conjugated anti-rabbit antibodies (1:4000, RT, 2 h) (Cell Signaling Technology), and the blots were incubated with Clarity Max ECL Western Blotting Substrate (Bio-Rad). Blot images and chemiluminescence signals were captured using a ChemiDoc MP Imaging System, and densitometry values were calculated using the Image Lab software (Bio-Rad). […]
# [2] = test system: TrkB and downstream proteins (PLCγ1, Akt1, ERK1/2); test: Downstream signaling immunoblot, RA-differentiated SH-SY5Y cell line; conditions: 1, 10, 100 μM, 15 min
# Description: The SH-SY5Y cell line was purchased from MilliporeSigma and cultured in growth medium: MEM (w/Earle’s Salts; w/L-Glutamine) + Ham’s F12 (w/L-Glutamine) (1:1 v/v), 1 × Antibiotic-Antimycotic, 1 × MEM Non-Essential Amino Acids (all reagents from Biowest, Riverside, MO, USA) and 15% FBS (Gibco, Thermo Fisher Scientific, Waltham, MA, USA). Cells were passaged using 0.25% Trypsin-EDTA (Biowest) and cultured in standard conditions (5% CO2, 37 °C with 95% relative humidity).
# To differentiate SH-SY5Y, cells were seeded in a cell culture flask at a density of 10,000 cells/cm^2 in standard growth medium containing 10 μM retinoic acid (RA; MilliporeSigma) and cultured for 7 consecutive days. Then, differentiated cells were harvested by trypsinization (Trypsin-EDTA 1×, 3 min at 37 °C), centrifuged (250× g; 5 min at 25 °C) and counted. […]
# Compound treatment was stopped by lysing cells with N-PER™ Neuronal Protein Extraction Reagent (Thermo Fisher Scientific) containing 1 × PhosSTOP™ (Roche, Basel, Switzerland), 1 × Halt Protease Inhibitor Single-Use Cocktail (ThermoFisher Scientific) and 5 mM EDTA. The lysates were collected by scraping, and centrifuged (8000× g; 10 min at 4 °C), and the protein concentration was determined using a BCA Pierce kit (ThermoFisher Scientific). […]
SMILES,Activation of downstream proteins (Akt1 and ERK1/2) after inhibition of TrkB kinase by K252a [1],"Phosphorylation of TrkB and downstream proteins (PLCγ1, Akt1, ERK1/2) [1]","Phosphorylation of TrkB and downstream proteins (PLCγ1, Akt1, ERK1/2) [2]"
CC(C)=CCc1cccc2c(C3=C(O)C(=O)C(c4c[nH]c5ccccc45)=C(O)C3=O)c[nH]c12,did not repress,demonstrated the activation of the TrkB receptor and phosphorylation of relevant downstream proteins,"able to induce the phosphorylation of TrkB, Akt1, ERK1/2, and PLCγ1"
CC(C)=CCc1cccc2c(C3=C(O)C(=O)C=C(O)C3=O)c[nH]c12,did not repress,demonstrated the activation of the TrkB receptor and phosphorylation of relevant downstream proteins,"able to induce the phosphorylation of TrkB, Akt1, ERK1/2, and PLCγ1"
